Test results reported in PubChem BioAssay AID652217 (Sanford-Burnham Center for Chemical Genomics, 2013).
The list shows a part of the results, in another mix than the full data. The source made the active and inactive calls. Cut-off read from the data, not from the text of the source: active = inhibition above about 40%; inactive = the rest.

Sequences of proteins named here, by UniProt entry; tags and fusion partners are left off.
UniProt P61081, whole entry, looked up: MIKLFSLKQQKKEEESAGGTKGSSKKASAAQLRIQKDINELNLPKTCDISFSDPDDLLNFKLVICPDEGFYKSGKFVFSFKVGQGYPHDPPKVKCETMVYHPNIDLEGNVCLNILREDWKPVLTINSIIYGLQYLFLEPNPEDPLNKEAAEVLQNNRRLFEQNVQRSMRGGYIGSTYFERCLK
UniProt Q13564, whole entry, looked up: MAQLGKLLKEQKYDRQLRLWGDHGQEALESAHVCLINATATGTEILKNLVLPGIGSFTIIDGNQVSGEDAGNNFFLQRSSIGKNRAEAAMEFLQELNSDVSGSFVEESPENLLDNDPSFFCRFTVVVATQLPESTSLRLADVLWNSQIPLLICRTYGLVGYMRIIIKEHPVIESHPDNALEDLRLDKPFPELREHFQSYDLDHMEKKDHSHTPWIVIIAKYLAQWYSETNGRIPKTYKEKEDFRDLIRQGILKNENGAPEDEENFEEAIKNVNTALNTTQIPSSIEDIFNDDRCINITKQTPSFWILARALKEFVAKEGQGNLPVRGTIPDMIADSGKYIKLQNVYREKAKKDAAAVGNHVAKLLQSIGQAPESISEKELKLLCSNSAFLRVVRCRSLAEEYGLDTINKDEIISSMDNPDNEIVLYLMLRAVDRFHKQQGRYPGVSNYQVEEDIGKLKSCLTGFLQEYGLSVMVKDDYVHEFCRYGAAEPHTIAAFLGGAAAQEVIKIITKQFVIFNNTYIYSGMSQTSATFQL

These compounds were tested against NEDD8-conjugating enzyme Ubc12 (Homo sapiens) + NEDD8-activating enzyme E1 regulatory subunit (Homo sapiens) (UniProt P61081+Q13564) (assay: blockade of NEDD8 conjugation to cullin – biochemical, TR-FRET, single concentration, confirmation (AID 652217;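 note: neddylation substrate is the cullin 1 ring ligase complex with SKP2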)). Details: TR-FRET cullin neddylation biochemical assay; at 25 µM; stronger effect = higher value.

Row | SMILES | inhibition
1 | COc1ccc(-c2ccccn2)cc1.O=[N+]([O-])c1cc([N+](=O)[O-])c(O)c([N+](=O)[O-])c1 | active: 46.4%
